# The entries are a selection whose mix differs from that of the whole data set. Calls of active or inactive are those of the source.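 The calls were made as follows: active = average inhibition above the solvent-only control wells' mean plus 3 SD (cut at about 15% in these data); inactive = the rest.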
# Test: compounds lowering TTR transcription reporter in HuH7 – cell-based, luminescence, HuH7 hepatoma, counter-screen for TTR transcription activator project (AID 1117279);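 also: 0% = cells with DMSO only and 100% = cells with inhibitor control FD; inhibitors lower well luminescence so higher value means more inhibition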
# Details: HuH7 TTR promoter-Gaussia luciferase reporter, at 16.7 µM, hits give high values
row,Structure (SMILES),inhibition
1,Cc1ccc(OP(=O)(Nc2nccs2)Oc2ccc(C)cc2)cc1,inactive: -8.02%
2,CCOP(=O)(Nc1ccccc1)OCC,inactive: -3.91%
